The source of these data is ChEMBL document CHEMBL5113448, “Synthesis and biological evaluation of 4H-benzo[e][1,3]oxazin-4-ones analogues of TGX-221 as inhibitors of PI3Kβ” (Bioorg Med Chem, 2022).

Protein sequences, listed by entry. Tags and fused reporters are not part of them. Lines headed by an entry give the natural chain unless they say otherwise; changes in a name come on top.
UniProt P42338: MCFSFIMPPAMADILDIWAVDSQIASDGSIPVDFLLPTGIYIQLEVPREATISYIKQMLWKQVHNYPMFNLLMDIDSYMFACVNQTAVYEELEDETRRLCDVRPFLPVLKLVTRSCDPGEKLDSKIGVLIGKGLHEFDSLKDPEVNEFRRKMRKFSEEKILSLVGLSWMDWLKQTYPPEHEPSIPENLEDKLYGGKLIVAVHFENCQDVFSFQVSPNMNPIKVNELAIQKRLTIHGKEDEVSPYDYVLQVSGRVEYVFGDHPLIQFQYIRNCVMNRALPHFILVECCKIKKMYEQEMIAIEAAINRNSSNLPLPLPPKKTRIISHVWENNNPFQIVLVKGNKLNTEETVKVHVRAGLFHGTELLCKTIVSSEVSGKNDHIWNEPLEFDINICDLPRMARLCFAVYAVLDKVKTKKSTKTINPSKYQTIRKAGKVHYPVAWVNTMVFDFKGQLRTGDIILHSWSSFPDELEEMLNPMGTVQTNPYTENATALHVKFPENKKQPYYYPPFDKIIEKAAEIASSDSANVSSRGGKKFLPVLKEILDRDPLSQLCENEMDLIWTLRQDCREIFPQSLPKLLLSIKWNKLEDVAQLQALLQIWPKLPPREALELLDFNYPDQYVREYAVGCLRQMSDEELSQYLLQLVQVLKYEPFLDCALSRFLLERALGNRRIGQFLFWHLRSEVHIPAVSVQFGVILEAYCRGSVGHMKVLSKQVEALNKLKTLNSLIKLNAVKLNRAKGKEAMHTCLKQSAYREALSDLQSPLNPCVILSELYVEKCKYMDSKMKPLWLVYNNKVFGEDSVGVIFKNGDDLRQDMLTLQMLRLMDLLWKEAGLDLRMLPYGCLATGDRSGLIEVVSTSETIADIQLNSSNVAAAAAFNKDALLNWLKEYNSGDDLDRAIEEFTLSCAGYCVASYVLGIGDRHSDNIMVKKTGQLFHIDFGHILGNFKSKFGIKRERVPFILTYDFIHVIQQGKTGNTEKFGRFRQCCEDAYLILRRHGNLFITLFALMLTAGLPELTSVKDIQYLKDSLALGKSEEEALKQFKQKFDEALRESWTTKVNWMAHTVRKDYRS

One may read the IC50 as the concentration needed to halve the response being measured.

This assay addresses Phosphatidylinositol 4,5-bisphosphate 3-kinase catalytic subunit beta isoform (Homo sapiens, UniProt P42338). The experiment in a line: Inhibition of PI3Kbeta (unknown origin) incubated for 60 mins in the presence of ATP by Kinase-Glo luminescence assay. (In Kinase-Glo more light means more ATP remaining.)

Turning to `Cc1cc(C(C)Nc2ccccc2)c2nc(N3CCOCC3)cc(=O)n2c1` (stereo unspecified), the IC50 was 65 nM.
